Biological target: T1, Cytochrome P450 1B1 (Homo sapiens, UniProt Q16678)
T1 sequence (Q16678 whole entry): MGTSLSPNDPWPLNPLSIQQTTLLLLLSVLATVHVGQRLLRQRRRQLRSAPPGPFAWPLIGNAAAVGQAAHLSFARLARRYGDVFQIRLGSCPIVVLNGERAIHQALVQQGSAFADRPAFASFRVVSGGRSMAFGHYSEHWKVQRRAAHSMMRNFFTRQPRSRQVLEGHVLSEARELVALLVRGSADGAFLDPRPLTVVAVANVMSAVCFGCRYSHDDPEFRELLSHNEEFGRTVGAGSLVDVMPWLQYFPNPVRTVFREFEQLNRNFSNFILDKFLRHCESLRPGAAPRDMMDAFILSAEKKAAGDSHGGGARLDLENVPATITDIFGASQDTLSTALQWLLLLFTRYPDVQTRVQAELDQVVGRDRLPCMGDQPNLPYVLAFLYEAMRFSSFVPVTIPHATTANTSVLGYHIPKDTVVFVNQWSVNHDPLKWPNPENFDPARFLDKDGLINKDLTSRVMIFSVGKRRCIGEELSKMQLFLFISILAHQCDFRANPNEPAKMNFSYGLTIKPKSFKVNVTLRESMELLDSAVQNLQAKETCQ

IC50: 2 nM
Structure (SMILES): COc1cc(/C=C/c2ccc(OC)cc2OC)cc(OC)c1

— ChEMBL document CHEMBL3132833, “3,4,2-Trimethoxy-trans-stilbene a potent CYP1B1 inhibitor” (Medchemcomm, 2014)
